Here are results for 1 molecule from ChEMBL document CHEMBL1126513, “Quinuclidine-based NK-1 antagonists I: 3-benzyloxy-1-azabicyclo[2.2.2]octanes” (Bioorg Med Chem Lett, 1993).

Amino acid sequences for entries named in this document (tags omitted).
UniProt P25103, whole entry, looked up: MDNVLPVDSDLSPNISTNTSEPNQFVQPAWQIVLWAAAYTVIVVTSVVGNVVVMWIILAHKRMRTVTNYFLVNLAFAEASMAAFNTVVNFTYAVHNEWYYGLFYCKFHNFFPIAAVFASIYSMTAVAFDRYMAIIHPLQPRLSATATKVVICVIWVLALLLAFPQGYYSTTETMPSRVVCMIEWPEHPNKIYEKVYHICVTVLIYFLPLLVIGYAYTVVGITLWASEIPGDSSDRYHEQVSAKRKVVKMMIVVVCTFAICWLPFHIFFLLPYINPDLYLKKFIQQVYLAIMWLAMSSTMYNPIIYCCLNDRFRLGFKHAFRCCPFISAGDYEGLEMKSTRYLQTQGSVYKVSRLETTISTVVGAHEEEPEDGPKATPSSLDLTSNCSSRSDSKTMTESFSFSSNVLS

In general, IC50 refers to the concentration needed to halve the response being measured. Lower therefore signals greater potency.

The assay addresses Substance-P receptor (Homo sapiens, UniProt P25103). Kind of assay: Displacement of [125]Substance P Binding from human Neurokinin NK1 receptor in CHO Cells.

The molecule `O=C(O[C@H]1C2CCN(CC2)[C@H]1C(c1ccccc1)c1ccccc1)c1ccccc1` came in with an IC50 of over 1000 nM.
